In patent US20220016251A1, “LYMPHATIC MEDIATED TRANSPORT-BASED TRIGLYCERIDE PRODRUG, AND PREPARATION METHOD THEREFOR” (SHENYANG PHARMACEUTICAL UNIVERSITY, priority 2019, published 2022):

Settings: rat
Text: The intestinal permeability of a docetaxel-triglyceride prodrug is investigated by in vivo intestinal perfusion in rats. […] In order to investigate the effect of intestinal pancreatic lipase digestion on the absorption of the prodrug, a pancreatic lipase inhibitor orlistat is administrated half an hour in advance.

Docetaxel-C5(Et)-Triglyceride Prodrug [DTX-5C(Et)-TG]
permeability coefficient Ka, increase compared with docetaxel solution: 1.73 times
